From patent publication US8916204B2, “SPARC and methods of use thereof” (Abraxis BioScience, LLC, priority 2004, dated 2014)

Biological target: T1, SPARC (Homo sapiens, UniProt P09486)
T1 sequence (P09486 18-303): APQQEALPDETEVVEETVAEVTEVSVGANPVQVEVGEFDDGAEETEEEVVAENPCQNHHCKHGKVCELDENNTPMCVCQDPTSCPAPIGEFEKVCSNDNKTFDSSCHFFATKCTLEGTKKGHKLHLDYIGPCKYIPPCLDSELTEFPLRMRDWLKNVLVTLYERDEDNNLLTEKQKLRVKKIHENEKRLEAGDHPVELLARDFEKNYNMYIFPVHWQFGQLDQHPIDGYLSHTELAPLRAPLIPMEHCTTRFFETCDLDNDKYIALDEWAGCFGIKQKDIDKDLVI
Assay: binding of fluorescent-tagged albumin to filter immobilized SPARC
Conditions: Alexa 488 labeled albumin; as HSA concentration
Experimental: Purified SPARC was immobilized onto PVDF membrane and reacted with increasing concentration of Human Serum Albumin/Bovine Serum Albumin (HSA/BSA) which has been Alexa 488 fluorochrome labeled.
Specifically the following protocol is used: • 1) Incubate membrane with 30% methanol for 5 min, using Sterile MultiScreen (HTS) 96-well Filtration system from Millipore (Cat. No.: MSIPS4510); • 2) Wash twice with Hanks Balance Salt Solution (HSBS); • 3) Incubate with 100 μl of 5 μg/100 μl solution of purified SPARC in HSBS; • 4) After 1 hour at 25° C., wash off twice with HSBS; • 5) Block with 5% milk overnight (5% Non-fat dry milk (Carnation) in 1×TBS) at 4° C.; • 6) Wash twice with HSBS; • 7) Incubate with albumin (resuspend 5 mg of BSA-Alexa fluor 488 (Molecular Probes) with 1 ml of HSA injection 25%, BAXTER); • 8) After 1 hour, wash three times with HSBS; • 9) Read with a fluorometer using detection wavelength for Alexa fluor 488; • 10) Specific binding is total binding minus binding to membrane without SPARC; and • 11) Plot specific binding versus HSA concentration (%).

IC50 of binding to immobilized SPARC: ~5 % (weight/volume)
Substance: HSA: Human Serum Albumin/Bovine Serum Albumin, Alexa 488 fluorochrome labeled
